The target in this assay is Protease (Human immunodeficiency virus 1, UniProt Q9YQ12). The experiment in a line: Inhibition of wild type HIV1 protease by enzyme inhibition.

The source of these data is ChEMBL document CHEMBL1140144 (J Med Chem, 2008).

Take `CC(C)CN(C[C@@H](O)[C@H](Cc1ccccc1)NC(=O)O[C@H]1CCOC1)S(=O)(=O)c1ccc(N)cc1`: the affinity, expressed as Ki, was 6.4 nM.
